Measurements: article PMC10164577 (2022)

Molecular target: Histone H3-H4 (Saccharomyces cerevisiae)
Assay: fluorescence polarization

B1: RPA (protein)
chain 1: SSVQLSRGDFHSIFTNKQRYDNPTGGVYQVYNTRKSDGANSNRKNLIMISDGIYHMKALLRNQAASKFQSMELQRGDIIRVIIAEPAIVRERKKYVLLVDDFELVQSRADMVNQTSTFLDNYFSEHPNETLKDEDITDSGNVANQTNASNAGVPDMLHSNSNLNANERKFANENPNSQKTRPIFAIEQLSPYQNVWTIKARVSYKGEIKTWHNQRGDGKLFNVNFLDTSGEIRATAFNDFATKFNEILQEGKVYYVSKAKLQPAKPQFTNLTHPYELNLDRDTVIEECFDESNVPKTHFNFIKLDAIQNQEVNSNVDVLGIIQTINPHFELTSRAGKKFDRRDITIVDDSGFSISVGLWNQQALDFNLPEGSVAAIKGVRVTDFGGKSLSMGFSSTLIPNPEIPEAYALKGWYDSKGRNANFITLKQEPGMGGQSAASLTKFIAQRITIARAQAENLGRSEKGDFFSVKAAISFLKVDNFAYPACSNENCNKKVLEQPDGTWRCEKCDTNNARPNWRYILTISIIDETNQLWLTLFDDQAKQLLGVDANTLMSLKEEDPNEFTKITQSIQMNEYDFRIRAREDTYNDQSRIRYTVANLHSLNYRAEADYLADELSKALLA
chain 2: MATYQPYNEYSSVTGGGFENSESRPGSGESETNTRVNTLTPVTIKQILESKQDIQDGPFVSHNQELHHVCFVGVVRNITDHTANIFLTIEDGTGQIEVRKWSEDANDLAAGNDDSSGKGYGSQVAQQFEIGGYVKVFGALKEFGGKKNIQYAVIKPIDSFNEVLTHHLEVIKCHSIASGMMKQPLESASNNNGQSLFVKDDNDTSSGSSPLQRILEFCKKQCEGKDANSFAVPIPLISQSLNLDETTVRNCCTTLTDQGFIYPTFDDNNFFAL
chain 3: MASETPRVDPTEISNVNAPVFRIIAQIKSQPTESQLILQSPTISSKNGSEVEMITLNNIRVSMNKTFEIDSWYEFVCRNNDDGELGFLILDAVLCKFKENEDLSLNGVVALQRLCKKYPEIY
Q: Which Kd does the source give for B1 here?
A: > 0.3 µM
